## Apparent affinities of Ab-14 variants for a coronavirus HR2 peptide

Values reported by Engelhart et al. 2022, doi:10.1038/s41597-022-01779-4 (FLAb copy).

Antigen: PDVDLGDISGINAS, a 14-residue peptide of the SARS-CoV-2 spike HR2 region.

Parent: Ab-14, a human scFv built as VH, a (GGGGS)3 linker, VL. Only the CDRs of the light chain vary.
VH: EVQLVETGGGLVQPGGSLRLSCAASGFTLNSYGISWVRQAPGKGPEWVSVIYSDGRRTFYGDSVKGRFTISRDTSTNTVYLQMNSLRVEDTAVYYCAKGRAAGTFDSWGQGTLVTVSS
VL: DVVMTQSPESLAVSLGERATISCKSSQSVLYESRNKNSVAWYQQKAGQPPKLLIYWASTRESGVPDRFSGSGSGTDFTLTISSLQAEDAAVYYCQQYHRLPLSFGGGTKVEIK

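The starting antibody came from a phage panning campaign against this peptide. In library AAYL50, one, two or three CDR residues were substituted; doubles and triples were drawn at random. Affinity was read by AlphaSeq, a pooled yeast mating assay with surface-displayed partners. Pairs that bind mate more often; barcode pairs of the diploids are counted by sequencing. Scores were corrected for input abundance and mapped to Kd with protein pairs of known affinity run in the same pool. Mating was done three times.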

Changes read parent residue, position, new residue, counted from the first residue of the VL shown. All variants listed here change S62 of the VL, counted from its first residue. Each Kd is an estimate from the mating assay, the geometric mean of the replicates in which the pair was seen; lower is stronger. A pair that was not seen in any replicate is written "nd"; this usually means weak binding, but a binder can also be missed. Three control strains display no target. For library AAYL50, 18% of the pairings with them gave a signal, with a median of 15 µM and one signal in twenty below 970 nM, so weak values seen in few replicates may be background. Also given: how often the same scFv was detected with the empty control strains. Parent in this assay: reference entry 4.4 nM, copy in this library 48 nM.

The variant V29L+S62G+L102S showed 38 nM (3 of 3 replicates; controls 2 of 9). With Q27L+S62P the result was 4.3 nM (3 of 3 replicates; controls 1 of 9). For S62L+Y97F+L102N, the assay gave 8.1 nM (3 of 3 replicates; controls 3 of 9). With L30W+A57L+S62T the result was 120 nM (3 of 3 replicates; controls 1 of 9). The variant K36L+S62R gave 3.3 nM (3 of 3 replicates; controls 7 of 9). With S28P+S62F+H98W the result was 8.2 nM (3 of 3 replicates; controls 1 of 9). The variant K24P+S25A+S62C gave 200 nM (3 of 3 replicates; controls 4 of 9). For S38W+S62M+L100M, the assay gave 16 µM (1 of 3 replicates; controls 4 of 9).

The variant E32N+S62C gave 19 nM (3 of 3 replicates; controls 1 of 9). With S25Q+W56V+S62L the result was 4.2 µM (1 of 3 replicates; controls 0 of 9). The variant K36A+S62V+Q95K gave 20 nM (3 of 3 replicates; controls 3 of 9). With V29S+R34L+S62T the result was 4.6 nM (3 of 3 replicates; controls 6 of 9). The variant E61H+S62C+Q95I gave 6.6 µM (1 of 3 replicates; controls 1 of 9). For S62D+Q95S, the assay gave 36 nM (3 of 3 replicates; controls 2 of 9). For Q27G+V39I+S62P, the assay gave 8.7 nM (3 of 3 replicates; controls 4 of 9). The variant E61P+S62Q+H98K showed nd (0 of 3 replicates; controls 0 of 9).

The variant S26T+A57Q+S62P showed 3.3 µM (1 of 3 replicates; controls 0 of 9). The variant S58V+S62D+Y97R gave 380 nM (3 of 3 replicates; controls 0 of 9). The variant S28Y+S62L+L100H gave 5.2 µM (1 of 3 replicates; controls 0 of 9). For K36H+A57N+S62L, the assay gave 38 µM (1 of 3 replicates; controls 4 of 9). For K36P+N37L+S62K, the assay gave 23 nM (3 of 3 replicates; controls 0 of 9). For R34E+N35D+S62M, the assay gave 9.4 nM (3 of 3 replicates; controls 1 of 9). The variant L30R+K36R+S62I showed 11 nM (3 of 3 replicates; controls 0 of 9). The variant S62E+H98F+P101A showed 17 nM (3 of 3 replicates; controls 2 of 9).

With S25V+S33T+S62L the result was 1.3 nM (3 of 3 replicates; controls 1 of 9). The variant S33K+S62I gave nd (0 of 3 replicates; controls 0 of 9). For Y31D+A57E+S62M, the assay gave 1.5 nM (3 of 3 replicates; controls 4 of 9). For K24A+K36I+S62K, the assay gave nd (0 of 3 replicates; controls 0 of 9). The variant S26P+S28A+S62D showed 2.3 nM (3 of 3 replicates; controls 0 of 9). With S62C+Q95S+L100S the result was nd (0 of 3 replicates; controls 0 of 9). The variant E32L+S62C+L100F gave 3.3 µM (1 of 3 replicates; controls 1 of 9). The variant R34A+R60V+S62K showed 9.5 nM (3 of 3 replicates; controls 1 of 9).

For S38H+S62M+H98V, the assay gave 3.5 µM (3 of 3 replicates; controls 3 of 9). With A40S+S62Q the result was 440 nM (3 of 3 replicates; controls 3 of 9). The variant T59G+S62L+Q96P showed 9.2 µM (2 of 3 replicates; controls 4 of 9). The variant N35K+N37D+S62G showed 240 nM (3 of 3 replicates; controls 1 of 9). For R34M+S62G+P101D, the assay gave 71 nM (3 of 3 replicates; controls 1 of 9). For N35I+R60L+S62V, the assay gave 900 nM (3 of 3 replicates; controls 0 of 9). The variant S62K showed nd (0 of 3 replicates; controls 0 of 9). With N35Y+S62V the result was 120 nM (3 of 3 replicates; controls 1 of 9).

The variant S38R+S62L+Q96M gave 120 µM (1 of 3 replicates; controls 3 of 9). The variant S62G+P101A+S103R gave 450 nM (3 of 3 replicates; controls 0 of 9). The variant S28N+W56N+S62Q showed 2.9 nM (3 of 3 replicates; controls 4 of 9). With V29H+N35F+S62G the result was 210 nM (3 of 3 replicates; controls 2 of 9). With K24D+R34E+S62Y the result was 2.8 µM (3 of 3 replicates; controls 3 of 9). With S62G the result was 330 nM (3 of 3 replicates; controls 2 of 9). The variant S26L+S62H+L100D showed nd (0 of 3 replicates; controls 1 of 9).

From the list, the first 6 with no signal in any replicate:

changes	apparent Kd	seen in	signal with controls
E61P+S62Q+H98K	nd	0/3	0/9
S33K+S62I	nd	0/3	0/9
K24A+K36I+S62K	nd	0/3	0/9
S62C+Q95S+L100S	nd	0/3	0/9
S62K	nd	0/3	0/9
S26L+S62H+L100D	nd	0/3	1/9